This is an account of results in PubChem BioAssay (Tox21).

The list shows a part of the results, in another mix than the full data. Records with an inconclusive call do not appear. The source made the active and inactive calls. Calls follow the shape of the dose curve; as a rule, active = well fitted cell-killing curve with a large enough effect in the repeat runs; inconclusive = weak or mixed curves, or effect the other way; inactive = flat fitted curve, though single readings scatter.

A short description of this assay: cAMP Responsive Elements (CRE) small molecule antagonists, cell-based qHTS assay: qHTS cell viability counter screen (AID 2060913). Also: nearly all actives have a fitted effect of over 40% in size. Particulars: CRE-bla HEK293T viability, CellTiter-Glo luminescence, 5 h. A digest of the protocol:
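CRE-bla HEK293T cells were seeded in assay medium with 10% dialyzed FBS, incubated 18 hrs at 37 C, then exposed to compounds plus 0.25 uM final NKH477 for 3 hrs. Viability was read by CellTiter-Glo luminescence after 30 min, in the same wells.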
On the technique in general: qHTS replaces the single test concentration by a dilution series.
% is scaled to controls: 0 for no effect and ±100 for the full control effect.

As to `OCCSCCO`, the viability change, negative = cytotoxic is inactive: 2.14% (at 42.5 µM (top of the series)) and inactive: -12.7% (at 92.4 µM (top of the series)).
